Results taken from publication PMC12354141.
pKd: −log10 of the molar value.

Protein sequences, listed by entry. Tags and fused reporters are not part of them. Residues count along the entry.
UniProt P02745, 23-245: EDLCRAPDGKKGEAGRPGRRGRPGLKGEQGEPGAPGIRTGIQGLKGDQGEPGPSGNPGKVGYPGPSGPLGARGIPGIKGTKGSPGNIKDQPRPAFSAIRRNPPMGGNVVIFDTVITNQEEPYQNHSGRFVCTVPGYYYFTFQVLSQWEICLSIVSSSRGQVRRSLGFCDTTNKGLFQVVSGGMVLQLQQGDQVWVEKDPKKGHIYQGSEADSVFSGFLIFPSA
UniProt P02746, 28-253: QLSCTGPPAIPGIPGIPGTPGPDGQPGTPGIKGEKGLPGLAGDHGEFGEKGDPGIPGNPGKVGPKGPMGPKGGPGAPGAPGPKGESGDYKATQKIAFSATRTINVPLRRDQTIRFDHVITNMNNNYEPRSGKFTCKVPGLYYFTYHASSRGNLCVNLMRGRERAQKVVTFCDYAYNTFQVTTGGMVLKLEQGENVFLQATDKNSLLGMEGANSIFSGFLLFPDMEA
UniProt P02747, 29-245: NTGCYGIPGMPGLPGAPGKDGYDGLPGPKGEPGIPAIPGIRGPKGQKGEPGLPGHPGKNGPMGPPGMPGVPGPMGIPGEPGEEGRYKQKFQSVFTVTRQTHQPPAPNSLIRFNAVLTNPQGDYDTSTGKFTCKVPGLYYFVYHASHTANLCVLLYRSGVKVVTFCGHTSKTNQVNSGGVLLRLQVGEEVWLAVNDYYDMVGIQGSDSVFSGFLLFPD

Target: denosumab (as such; mean over the products) (human)
Test: BLI

Substance: human complement component 1q (C1q) (from UniProt P02745;P02746;P02747) (complex)
- pKd: 7.15
